# Experimental data: PubChem BioAssay (NCATS)
# Protein sequences, listed by entry. Tags and fused reporters are not part of them. Lines headed by an entry give the natural chain unless they say otherwise; changes in a name come on top.
# UniProt P11712, whole entry, looked up: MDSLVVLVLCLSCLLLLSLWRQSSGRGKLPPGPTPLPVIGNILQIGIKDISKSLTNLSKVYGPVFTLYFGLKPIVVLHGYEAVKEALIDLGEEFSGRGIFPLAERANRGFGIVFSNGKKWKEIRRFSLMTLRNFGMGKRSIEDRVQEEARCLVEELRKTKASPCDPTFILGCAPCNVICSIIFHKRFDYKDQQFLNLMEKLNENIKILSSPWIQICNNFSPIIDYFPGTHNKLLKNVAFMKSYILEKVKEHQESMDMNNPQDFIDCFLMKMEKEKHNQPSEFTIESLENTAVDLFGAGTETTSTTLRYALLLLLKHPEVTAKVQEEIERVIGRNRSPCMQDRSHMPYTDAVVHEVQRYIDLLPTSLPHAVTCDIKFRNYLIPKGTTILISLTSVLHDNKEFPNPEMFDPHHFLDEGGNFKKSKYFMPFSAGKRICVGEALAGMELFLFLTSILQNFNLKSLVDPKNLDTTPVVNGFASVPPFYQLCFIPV
# UniProt P27695, whole entry, looked up: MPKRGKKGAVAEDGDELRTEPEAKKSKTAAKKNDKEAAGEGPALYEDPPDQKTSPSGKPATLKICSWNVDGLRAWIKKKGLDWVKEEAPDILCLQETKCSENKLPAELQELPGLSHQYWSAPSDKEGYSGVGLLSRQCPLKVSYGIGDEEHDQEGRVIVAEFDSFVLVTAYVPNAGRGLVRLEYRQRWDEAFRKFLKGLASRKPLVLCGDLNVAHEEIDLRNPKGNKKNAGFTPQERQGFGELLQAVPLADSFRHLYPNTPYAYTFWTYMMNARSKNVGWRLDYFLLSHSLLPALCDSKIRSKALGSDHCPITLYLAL
# UniProt P10635, whole entry, looked up: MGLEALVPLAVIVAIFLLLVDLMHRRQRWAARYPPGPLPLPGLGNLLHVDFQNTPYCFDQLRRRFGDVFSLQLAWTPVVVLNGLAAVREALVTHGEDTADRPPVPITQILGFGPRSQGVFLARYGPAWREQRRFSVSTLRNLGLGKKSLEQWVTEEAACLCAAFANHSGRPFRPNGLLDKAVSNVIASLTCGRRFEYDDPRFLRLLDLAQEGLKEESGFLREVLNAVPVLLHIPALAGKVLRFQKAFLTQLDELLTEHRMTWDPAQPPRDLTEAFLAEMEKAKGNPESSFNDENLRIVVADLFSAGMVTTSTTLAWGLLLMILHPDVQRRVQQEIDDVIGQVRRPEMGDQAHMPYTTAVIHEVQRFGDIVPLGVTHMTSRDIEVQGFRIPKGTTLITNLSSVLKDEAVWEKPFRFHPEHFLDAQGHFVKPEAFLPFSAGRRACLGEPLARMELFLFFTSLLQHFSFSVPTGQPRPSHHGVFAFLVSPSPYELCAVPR
# UniProt P05177, whole entry, looked up: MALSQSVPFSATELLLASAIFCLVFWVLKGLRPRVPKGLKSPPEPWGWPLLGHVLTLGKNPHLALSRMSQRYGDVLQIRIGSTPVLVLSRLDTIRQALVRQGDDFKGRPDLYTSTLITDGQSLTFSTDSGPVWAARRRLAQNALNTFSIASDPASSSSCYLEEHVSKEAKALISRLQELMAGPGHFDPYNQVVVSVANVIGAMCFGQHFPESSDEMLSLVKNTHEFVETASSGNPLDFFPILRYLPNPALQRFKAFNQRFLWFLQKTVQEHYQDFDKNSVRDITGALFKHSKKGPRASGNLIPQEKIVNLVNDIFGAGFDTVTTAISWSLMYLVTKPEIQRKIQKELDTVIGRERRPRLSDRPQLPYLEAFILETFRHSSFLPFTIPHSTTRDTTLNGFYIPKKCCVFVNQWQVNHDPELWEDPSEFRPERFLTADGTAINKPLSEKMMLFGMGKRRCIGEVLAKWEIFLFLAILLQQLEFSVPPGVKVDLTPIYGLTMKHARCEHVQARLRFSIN
# UniProt P33261, whole entry, looked up: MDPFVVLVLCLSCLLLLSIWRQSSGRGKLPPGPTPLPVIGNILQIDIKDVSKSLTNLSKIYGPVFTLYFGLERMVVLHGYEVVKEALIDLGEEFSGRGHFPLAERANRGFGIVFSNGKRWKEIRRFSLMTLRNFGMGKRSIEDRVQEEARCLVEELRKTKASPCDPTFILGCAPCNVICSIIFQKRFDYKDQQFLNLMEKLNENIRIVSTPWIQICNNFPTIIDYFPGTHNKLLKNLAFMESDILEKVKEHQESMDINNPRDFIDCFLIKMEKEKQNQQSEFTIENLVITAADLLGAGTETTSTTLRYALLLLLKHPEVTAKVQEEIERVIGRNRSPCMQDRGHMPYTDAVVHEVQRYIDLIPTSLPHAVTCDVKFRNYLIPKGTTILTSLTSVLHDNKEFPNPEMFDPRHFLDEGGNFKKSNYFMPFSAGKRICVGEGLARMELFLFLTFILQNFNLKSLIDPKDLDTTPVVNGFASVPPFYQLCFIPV
# UniProt P21728, whole entry, looked up: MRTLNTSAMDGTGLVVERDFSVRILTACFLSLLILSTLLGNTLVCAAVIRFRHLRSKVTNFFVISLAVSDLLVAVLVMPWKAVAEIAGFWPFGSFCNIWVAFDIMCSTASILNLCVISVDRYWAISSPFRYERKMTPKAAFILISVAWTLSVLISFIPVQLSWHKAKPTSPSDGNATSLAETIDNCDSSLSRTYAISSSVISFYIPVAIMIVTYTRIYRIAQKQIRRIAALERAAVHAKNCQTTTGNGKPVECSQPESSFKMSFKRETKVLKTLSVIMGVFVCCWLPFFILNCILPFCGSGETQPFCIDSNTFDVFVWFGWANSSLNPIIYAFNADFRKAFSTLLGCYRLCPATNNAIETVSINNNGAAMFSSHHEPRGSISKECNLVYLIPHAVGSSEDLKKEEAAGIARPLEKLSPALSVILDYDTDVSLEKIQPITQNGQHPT
# UniProt Q12809: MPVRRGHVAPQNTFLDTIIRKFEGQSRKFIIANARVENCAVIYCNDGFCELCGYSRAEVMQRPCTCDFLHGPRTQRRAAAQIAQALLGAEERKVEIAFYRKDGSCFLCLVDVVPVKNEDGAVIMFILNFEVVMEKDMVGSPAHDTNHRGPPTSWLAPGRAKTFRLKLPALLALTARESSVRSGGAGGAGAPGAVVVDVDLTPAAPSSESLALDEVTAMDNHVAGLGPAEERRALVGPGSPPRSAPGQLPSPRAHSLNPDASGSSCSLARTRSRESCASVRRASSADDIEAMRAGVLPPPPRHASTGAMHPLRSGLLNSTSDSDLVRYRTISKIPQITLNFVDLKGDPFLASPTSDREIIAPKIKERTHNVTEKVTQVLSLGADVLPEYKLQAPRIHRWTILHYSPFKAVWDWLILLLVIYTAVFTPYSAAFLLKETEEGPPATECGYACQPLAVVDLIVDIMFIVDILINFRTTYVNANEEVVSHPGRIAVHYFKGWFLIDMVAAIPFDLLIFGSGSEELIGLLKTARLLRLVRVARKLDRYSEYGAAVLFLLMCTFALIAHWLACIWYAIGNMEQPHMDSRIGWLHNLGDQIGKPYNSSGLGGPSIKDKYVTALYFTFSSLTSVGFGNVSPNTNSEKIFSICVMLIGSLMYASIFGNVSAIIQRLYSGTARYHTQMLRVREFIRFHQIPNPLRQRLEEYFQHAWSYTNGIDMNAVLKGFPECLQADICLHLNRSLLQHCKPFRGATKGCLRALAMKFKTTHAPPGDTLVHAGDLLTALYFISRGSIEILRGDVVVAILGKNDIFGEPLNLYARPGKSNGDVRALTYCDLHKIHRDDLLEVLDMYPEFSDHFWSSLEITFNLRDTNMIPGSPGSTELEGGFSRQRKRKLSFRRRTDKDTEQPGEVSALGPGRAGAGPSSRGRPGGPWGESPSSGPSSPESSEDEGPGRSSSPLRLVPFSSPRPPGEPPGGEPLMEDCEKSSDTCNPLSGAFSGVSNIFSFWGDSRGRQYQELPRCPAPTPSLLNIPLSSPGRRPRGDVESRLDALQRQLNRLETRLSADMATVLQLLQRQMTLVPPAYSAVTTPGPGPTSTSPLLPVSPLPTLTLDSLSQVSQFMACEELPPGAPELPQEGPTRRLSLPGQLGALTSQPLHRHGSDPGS
# For some of these results: Shown are results outside the selection of hits, which stands elsewhere. Records with an inconclusive call do not appear. The entries are a selection whose mix differs from that of the whole data set. Active and inactive are the calls of the source. Unless noted, calls follow the shape of the dose curve; as a rule, active = well fitted curve in the direction sought with a large enough effect; inconclusive = small, poorly fitted or top-dose-only effect, or another doubt; inactive = no such curve, though single readings can be large; an effect the other way counts as inactive or inconclusive.
# Assays:
# [1] = biological target: Cytochrome P450 2C9 (Homo sapiens) (UniProt P11712); assay: qHTS Assay for Inhibitors and Substrates of Cytochrome P450 2C9 (AID 883); details: recombinant CYP2C9, luciferin-H luminescence, 60 min; also: potency is read from the fitted curve at half-maximal effect; nearly all actives have a fitted effect of over 60% in size
# [2] = biological target: Cytochrome P450 2C9 (Homo sapiens) (UniProt P11712); assay: Cytochrome P450 family 2 subfamily C member 9 (CYP2C9) small molecule antagonists: luciferase biochemical (cell-free) qHTS assay (AID 1645842; active = well fitted curve in the direction sought with a large enough effect in the repeat runs; an effect the other way counts as inactive or inconclusive; also: potency is read from the fitted curve at half-maximal effect; nearly all actives have a fitted effect of over 55% in size); details: P450-Glo CYP2C9 enzyme assay, luciferin luminescence
# [3] = biological target: Cytochrome P450 2C9 (Homo sapiens) (UniProt P11712); assay: qHTS for inhibitors of CYP2C9 against the NCATS DSHEA and TCM libraries (AID 1919973); details: recombinant CYP2C9 enzyme activity, luminescence; also: potency is read from the fitted curve at half-maximal effect
# How it was run: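 Read-out is luminescence after P450-Glo detection (30 min, RT). Before that: 15 min compound–enzyme preincubation, then 30-45 min reaction with 1x NADPH regeneration solution, substrate concentration isoform-specific.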
# [4] = biological target: Endonuclease 4 (Escherichia coli (strain K12)) (UniProt P0A6C1); assay: Counterscreen for APE1 Inhibitors: qHTS Assay for Inhibitors of Endonuclease IV (AID 2565);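 also: plate controls were uninhibited enzyme wells for no effect and no enzyme buffer wells for full effect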; details: E. coli Endo IV, fluorogenic AP-site DNA cleavage; at 57.1 µM (top of the series)
# How it was run: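 E. coli EndoIV at 2 nM final, preincubated 15 min at room temperature with compound, then 50 nM TAMRA/BHQ-2 THF abasic-site duplex added. Buffer: 50 mM Tris-HCl pH 7.5, 50 mM NaCl, 2 mM MgCl2, 1 mM DTT, 0.01% Tween-20. Kinetic fluorescence increase, third minus first read.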
# [5] = biological target: DNA repair nuclease/redox regulator APEX1 (Homo sapiens) (UniProt P27695); assay: Confirmation qHTS Assay for Inhibitors of the Human Apurinic/apyrimidinic Endonuclease 1 (APE1) (AID 2572); details: purified APE1, fluorogenic abasic-site DNA cleavage; also: potency is read from the fitted curve at half-maximal effect; nearly all actives have a fitted effect of over 30% in size
# How it was run: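 Enzyme preincubated 15 min at room temperature with compound; reaction started with 50 nM final double-stranded THF abasic-site substrate (5'-TAMRA, 3'-BHQ-2). Fluorescence read kinetically (525/598 nm); third-minus-first read difference gives reaction progress.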
# [6] = biological target: Cytochrome P450 2D6 (Homo sapiens) (UniProt P10635); assay: Cytochrome P450 family 2 subfamily D member 6 (CYP2D6) small molecule antagonists: luciferase biochemical (cell-free) qHTS assay (AID 1645840; active = well fitted curve in the direction sought with a large enough effect in the repeat runs; an effect the other way counts as inactive or inconclusive; also: potency is read from the fitted curve at half-maximal effect; nearly all actives have a fitted effect of over 55% in size); details: P450-Glo CYP2D6 enzyme, luciferin luminescence, 1 h
# How it was run: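 P450-Glo luminescent screen: recombinant CYP2D6 enzyme–proluciferin substrate mix preincubated with compound 10 min at room temperature, then NADPH regeneration added for 1 h at room temperature. Detection reagent added for 20 min; luciferin light read as relative luminescence units.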
# [7] = biological target: Cytochrome P450 1A2 (Homo sapiens) (UniProt P05177); assay: p450-cyp1a2 (AID 410; calls by dose curve; also: potency is read from the fitted curve at half-maximal effect); details: recombinant CYP1A2, luciferin-ME demethylation, luminescence
# How it was run: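 Luminescent readout of luciferin formed from Luciferin-ME by human CYP1A2; data normalized against complete inhibition by 57 uM furafylline. Enzyme 20nM, substrate 100uM at Km, 100mM KPO4 buffer, 60 min reaction at room temperature.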
# [8] = biological target: Cytochrome P450 2C19 (Homo sapiens) (UniProt P33261); assay: qHTS Assay for Inhibitors and Substrates of Cytochrome P450 2C19 (AID 899); details: recombinant CYP2C19, luciferin-H EGE luminescence; also: potency is read from the fitted curve at half-maximal effect; nearly all actives have a fitted effect of over 60% in size
# [9] = biological target: D(1A) dopamine receptor (Homo sapiens) (UniProt P21728); assay: HTS Assay for Allosteric Agonists of the Human D1 Dopamine Receptor: Primary Screen for Antagonists (AID 488983); details: D1 receptor cell assay, antagonist mode, qHTS titration;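 also: calcium flux response to an EC80 dopamine challenge measured with no-wash dye; potency is read from the fitted curve at half-maximal effect; nearly all actives have a fitted effect of over 65% in size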
# How it was run: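 Cells are induced with tetracycline and incubated overnight at 30 C, then loaded with calcium dye for 30 to 90 minutes at room temperature. Compound addition is followed by a 180 s read, then an EC80 dopamine addition and another 180 s read.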
# [10] = HTS Assay for Allosteric Antagonists of the Human D2 Dopamine Receptor: Hit Validation in HTRF (AID 624455); details: Cells stably expressing D1 dopamine receptor, inhibition mode;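 also: stable D1 dopamine receptor cell line scored for blocking the D1 response; potency is read from the fitted curve at half-maximal effect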
# How it was run: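 First, antagonism was screened by calcium flux in a force-coupled, inducible Hek293 Trex D2 line challenged with EC80 dopamine. Hits then went into an HTRF assay in cells stably expressing D1, testing inhibition of the D1 response.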
# [11] = biological target: Voltage-gated inwardly rectifying potassium channel KCNH2 (Homo sapiens) (UniProt Q12809); assay: qHTS Assay for Small Molecule Inhibitors of the Human hERG Channel Activity (AID 588834); details: U2OS BacMam hERG, FluxOR thallium flux fluorescence;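 also: potency is read from the fitted curve at half-maximal effect; lower thallium flux fluorescence means stronger hERG block; nearly all actives have a fitted effect of over 50% in size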
# [12] = biological target: D(1A) dopamine receptor (Homo sapiens) (UniProt P21728); assay: HTS Assay for Allosteric Agonists of the Human D1 Dopamine Receptor: Primary Screen for Agonists (AID 488981); details: Inducible HEK293 T-REx D1 cells, calcium-flux fluorescence, 180 s kinetic; at 41.8 µM (top of the series); also: 0% is about no effect
# How it was run: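 Tetracycline-induced HEK293 Trex D1 cells with forced coupling to calcium, loaded with no-wash calcium dye; kinetic fluorescence read 180 s after compound addition for agonism, then a further 180 s after an EC20 dopamine challenge for potentiation.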
structure (smiles),measurement,setting,value
O=c1c(O)c(-c2ccc(O)c(O)c2)oc2cc(O)cc(O)c12,Potency,[1],active: 7940 nM
same,Potency,[2],active: 13800 nM
same,Potency,[3],active: 4470 nM
C#C[C@]1(O)CC[C@@H]2[C@H]3CCC4=Cc5oncc5C[C@]4(C)[C@@H]3CC[C@@]21C,Potency,[1],active: 1260 nM
O=c1c(O)c(-c2cc(O)c(O)c(O)c2)oc2cc(O)cc(O)c12,"activity change, negative = inhibition",[4],inactive: -4.93%
same,Potency,[5],active: 7080 nM
COc1cc(NC(C)CCCN)c2ncccc2c1 (configuration not stated),Potency,[6],active: 5490 nM
COc1cc(N[C@@H](C)CCCN)c2ncccc2c1,Potency,[7],active: 200 nM
same,Potency,[8],active: 3980 nM
CNC[C@H](O)c1ccc(O)c(O)c1,Potency,[9],active: 2510 nM
same,Potency,[10],active: 164 nM
C#C[C@@]1(O)CC[C@H]2[C@H]3CCC4=Cc5oncc5C[C@]4(C)[C@@H]3CC[C@@]21C,Potency,[1],active: 2000 nM
OC(Cn1cncn1)(Cn1cncn1)c1ccc(F)cc1F,Potency,[2],active: 11000 nM
COc1cc(N)c(Cl)cc1C(=O)NC1CCN(CCCOc2ccc(F)cc2)CC1OC (configuration not stated),Potency,[6],active: 77.6 nM
CN(C)c1ccc2nc3ccc(=[N+](C)C)cc-3sc2c1,Potency,[6],active: 389 nM
same,Potency,[2],active: 692 nM
OCCN1CCN(CC/C=C2/c3ccccc3Sc3ccc(C(F)(F)F)cc32)CC1,Potency,[9],active: 112 nM
C#C[C@]1(O)CC[C@H]2[C@@H]3CCC4=Cc5oncc5C[C@]4(C)[C@H]3CC[C@@]21C,Potency,[2],active: 1380 nM
O=C1Cc2cc(CCN3CCN(c4nsc5ccccc45)CC3)c(Cl)cc2N1,Potency,[11],active: 1410 nM
CNCC(O)c1ccc(O)c(O)c1 (configuration not stated),activation,[12],inactive: 29.5%
same,Potency,[9],active: 3980 nM
same,Potency,[10],active: 326 nM
